# Earlier results in patent US5756301A, “Endogenous taxol-like substance in human serum, monoclonal antibodies directed thereto and methods of assaying therefor” (The Trustees of Columbia University in the City of New York, priority 1993, dated 1998).
# Test system: microtubules / tubulin
# Conditions: cited from earlier work
smiles,measurement,value
COc1cc2c(c(OC)c1OC)-c1ccc(OC)c(=O)cc1[C@@H](NC(C)=O)CC2 [colchicine],Effect on microtubule assembly / tubulin polymerization,inhibit tubulin polymerization
